Measurements published in patent publication US20240208895A1, “BRANCHED-CHAIN AMINO ACID DERIVATIVES TO TREAT DISEASE” (INTRABIO LTD., priority 2021, published 2024).
Like-named read-outs stand apart in the source and are kept apart here.

What was measured:
[1] = Description: (§1) A Compound of the Disclosure is incubated at 1 μM, 10 μM and 100 μM with pooled liver S9 fractions from human (mixed gender) and mouse (CD1) at 1.5 mg/mL in 300 μL buffer containing phosphate 100 mM, MgCl2 2 mM, pH 7.4 at 37° C. for 0, 10, 20, 40, 60 min.
(§2) Enzyme kinetic data for uptake and metabolism of a Compound of the Disclosure is analysed by fitting the Michaelis-Menten equation to the data. V0=Vmax[S]/Km+[S], where V0 is initial velocity, [S] is substrate concentration, Vmax is maximum velocity and Km is substrate concentration at half Vmax. All fitting is performed using GraphPad Prism 8.4 software (GraphPad Software Inc). No weighting scheme is applied.

[2] = remark: listed apart in the source
Description: as §1, §2

- Km [1]: 69 µM
- Vmax, metabolism [1]: 2.6 µmol/min/mg
- Km [2]: 216 µM
- Vmax, metabolism [2]: 6.8 µmol/min/mg
Substance: deuterated N-acetyl-DL-leucine
